The source of these data is publication PMC3386472 (Journal of Medicinal Chemistry, 2012).

Protein sequences, listed by entry. Tags and fused reporters are not part of them.
UniProt P19020, whole entry: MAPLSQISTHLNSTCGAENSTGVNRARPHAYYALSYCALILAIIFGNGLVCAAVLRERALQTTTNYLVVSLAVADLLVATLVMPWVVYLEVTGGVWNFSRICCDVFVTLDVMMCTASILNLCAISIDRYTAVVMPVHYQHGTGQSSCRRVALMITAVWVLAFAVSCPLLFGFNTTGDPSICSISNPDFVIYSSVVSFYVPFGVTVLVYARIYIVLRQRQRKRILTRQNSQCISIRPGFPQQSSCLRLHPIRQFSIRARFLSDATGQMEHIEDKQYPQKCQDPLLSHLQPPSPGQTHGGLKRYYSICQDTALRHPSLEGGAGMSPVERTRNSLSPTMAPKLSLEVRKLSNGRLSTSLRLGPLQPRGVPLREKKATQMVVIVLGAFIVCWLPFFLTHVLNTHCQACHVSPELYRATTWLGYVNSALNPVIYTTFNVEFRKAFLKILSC

SMILES strings stand for the structures.

The assay has as its target rat D3 receptor (Rattus norvegicus, UniProt P19020). To be noted: binding selectivity, ratio Ki rD2L / Ki rD3.

On to `CCCN(CCC)C1CCc2c(O)cccc2C1` (single isomer, unassigned; (-)) [(−)-5-OH-DPAT, 5-hydroxy-2-(dipropylamino)tetralin], for which the D2L/D3 amounted to 43.2.
